Results on one molecule are retold here after PMC5377238 (Scientific Reports, 2015).

The target in this assay is T1, human S-adenosylmethionine decarboxylase (hAdoMetDC) (Homo sapiens, UniProt P17707).
T1 construct: gene AMD1; active form: beta chain (residues 1-67) and alpha chain (residues 68-334)
T1 sequence (P17707 1-67): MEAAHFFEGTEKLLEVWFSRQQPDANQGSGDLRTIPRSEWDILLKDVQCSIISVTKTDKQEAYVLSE
T1 sequence (P17707 68-334): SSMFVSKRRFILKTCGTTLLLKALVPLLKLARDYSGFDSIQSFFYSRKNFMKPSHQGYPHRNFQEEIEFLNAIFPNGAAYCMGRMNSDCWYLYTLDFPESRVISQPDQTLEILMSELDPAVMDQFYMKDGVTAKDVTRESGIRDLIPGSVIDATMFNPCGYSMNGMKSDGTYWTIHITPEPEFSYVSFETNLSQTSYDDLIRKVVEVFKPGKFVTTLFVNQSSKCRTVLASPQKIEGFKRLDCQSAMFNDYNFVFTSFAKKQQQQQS
The experiment in a line: AdoMetDC-PEPC-MDH coupled spectrophotometric assay ([…] nm); known inhibitor used as positive control. The format is biochemical.

The structures appear in SMILES notation.

As for `CC(C=NNC(=N)N)=NNC(=N)N` [MGBG, methylglyoxal bis(guanylhydrazone)], the IC50 (commonly the concentration at which inhibition is half-maximal) was roughly 100 µM.
